The source of these data is patent US20080267942A1, “BENZAZEPIN-2(1H)-ONE DERIVATIVES” (Pfizer Limited, priority 2006, published 2008).

The chains behind the UniProt entries cited, without tags or fusion partners.
UniProt Q28997, whole entry: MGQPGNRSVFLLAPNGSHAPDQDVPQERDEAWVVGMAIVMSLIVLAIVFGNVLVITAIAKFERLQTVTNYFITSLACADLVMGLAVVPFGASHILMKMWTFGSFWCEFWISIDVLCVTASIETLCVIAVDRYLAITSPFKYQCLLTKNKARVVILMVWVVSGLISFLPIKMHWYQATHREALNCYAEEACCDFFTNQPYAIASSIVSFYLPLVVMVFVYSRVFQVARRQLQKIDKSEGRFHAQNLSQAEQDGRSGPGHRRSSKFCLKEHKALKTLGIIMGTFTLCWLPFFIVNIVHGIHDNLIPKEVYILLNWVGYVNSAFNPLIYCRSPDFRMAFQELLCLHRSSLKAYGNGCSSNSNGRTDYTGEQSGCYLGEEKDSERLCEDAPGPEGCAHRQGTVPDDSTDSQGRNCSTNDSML
UniProt Q28044, whole entry: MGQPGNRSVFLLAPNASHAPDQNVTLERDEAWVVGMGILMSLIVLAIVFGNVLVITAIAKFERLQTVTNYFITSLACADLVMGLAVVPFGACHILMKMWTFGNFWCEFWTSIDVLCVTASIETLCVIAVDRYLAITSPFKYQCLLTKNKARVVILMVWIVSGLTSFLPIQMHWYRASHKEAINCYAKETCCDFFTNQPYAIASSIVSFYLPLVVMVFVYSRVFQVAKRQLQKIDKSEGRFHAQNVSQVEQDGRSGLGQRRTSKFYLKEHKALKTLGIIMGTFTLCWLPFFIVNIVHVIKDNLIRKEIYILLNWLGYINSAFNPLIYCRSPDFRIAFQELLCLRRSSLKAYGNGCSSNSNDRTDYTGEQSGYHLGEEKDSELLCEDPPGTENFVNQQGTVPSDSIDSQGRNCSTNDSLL

The target of experiment [1] is porcine beta-2 adrenoceptor (Sus scrofa, UniProt Q28997). In words: cAMP assay in CHO cells transfected with the porcine beta-2 adrenoceptor (DiscoveRx Hit Hunter cAMP II). The note with it: read-out: Porcine EC50, CHO cells transfected with porcine beta-2 adrenoceptor, 30 minutes incubation with compound, tested form: pair of enantiomers (racemate of the 4e). How it is done:
(§1) CHO cells transfected with the bovine or porcine beta-2 adrenceptors were maintained in culture in DMEM/HAMS F12+10% FBS+2 mM glutamine+500 μg/ml geneticin (for the porcine receptor the medium was supplement with 1.5 mM HEPES) at 37° C. with a 5% CO2 atmosphere.
(§2) Cells were plated into 96 well viewplates in medium and incubated overnight at 37° C. with a 5% CO2 atmosphere. The cells were pre-incubated with 0.5 mM IBMX in PBS for 30 minutes prior to incubation with increasing concentrations of experimental compound (5×10^−12 to 10^−5M) for 30 minutes at 37° C. with a 5% CO2 atmosphere. At the end of the incubation time the compound was removed and the cells assayed for cAMP using the DiscoveRx Hit Hunter cAMP II™ assay kit.
(§3) Duplicate samples were run for each experimental compound and the data generated was analysed using EC50 analysis software in Graphpad Prism.
On the technique in general: cAMP levels reflect the balance of adenylyl cyclase and phosphodiesterase activity.

Experiment [2] addresses bovine beta-2 adrenoceptor (Bos taurus, UniProt Q28044). In words: cAMP assay in CHO cells transfected with the bovine beta-2 adrenoceptor (DiscoveRx Hit Hunter cAMP II). The note with it: read-out: Bovine EC50, CHO cells transfected with bovine beta-2 adrenoceptor, 30 minutes incubation with compound, tested form: pair of enantiomers (racemate of the 4e). How it is done:
as §1, §2, §3

In the case of `CC(CCc1c[nH]c2ccccc12)N[C@@H]1CCn2c(=O)[nH]c3cccc(c32)[C@H]1O` (single isomer, unassigned), the EC50 in experiment [1] is 3 nM; in experiment [2], 2.1 nM.

A word on the EC50: it is the concentration giving half of the maximal effect.
